How the values were obtained:
[1] = test system: various yeast species; assay: Effect of levulinic acids plus SDS at 21° C. on various yeast species; format: cell-based; settings: 0 min (delayed by 5 to 10 seconds)
[2] = test system: various mold species; assay: Effect of levulinic acids plus SDS at 21° C. on various mold species; settings: for Mold counts at min: 0: 0 min (delayed by 5 to 10 seconds); for Mold counts at min: 1: 1 min; for Mold counts at min: 2: 2 min; for Mold counts at min: 5: 5 min; for Mold counts at min: 10: 10 min; for Mold counts at min: 20: 20 min; for Mold counts at min: 30: 30 min; for Mold counts at min: 60: 60 min

Row | SMILES | Yeast counts at min: 0 ([1]; Candida magnoliae) | Yeast counts at min: 0 ([1]; Debaryomyces hansenii) | Yeast counts at min: 0 ([1]; Geotrichum candidum) | Yeast counts at min: 0 ([1]; Saccharomyces cerevisiae) | Yeast counts at min: 0 ([1]; Zygosaccharomyces bailii) | Mold counts at min: 0 ([2]; Mucor hiemalis) | Mold counts at min: 1 ([2]; Mucor hiemalis) | Mold counts at min: 2 ([2]; Mucor hiemalis) | Mold counts at min: 5 ([2]; Mucor hiemalis) | Mold counts at min: 10 ([2]; Mucor hiemalis) | Mold counts at min: 20 ([2]; Mucor hiemalis) | Mold counts at min: 30 ([2]; Mucor hiemalis) | Mold counts at min: 60 ([2]; Mucor hiemalis) | Mold counts at min: 0 ([2]; Penicillium expansum) | Mold counts at min: 1 ([2]; Penicillium expansum) | Mold counts at min: 2 ([2]; Penicillium expansum) | Mold counts at min: 5 ([2]; Penicillium expansum) | Mold counts at min: 10 ([2]; Penicillium expansum) | Mold counts at min: 20 ([2]; Penicillium expansum) | Mold counts at min: 30 ([2]; Penicillium expansum) | further results
1 | CCCCCCCCCCCCOS(=O)(=O)[O-].[Na+] [1.0% SDS] | 3.5 log CFU/ml | 4.5 log CFU/ml | 3.6 log CFU/ml | 2.7 log CFU/ml | 4.6 log CFU/ml | – | – | – | – | – | – | – | – | – | – | – | – | – | – | – | –
2 | CC(=O)CCC(=O)O [2% levulinic acid] | – | – | – | – | 5.4 log CFU/ml | – | – | – | – | – | – | – | – | – | – | – | – | – | – | – | –
3 | CCCCCCCCCCCCOS(=O)(=O)[O-].[Na+] [2.0% SDS] | – | – | – | – | – | 6.0 log CFU/ml | 5.8 log CFU/ml | 5.8 log CFU/ml | 6.0 log CFU/ml | 5.9 log CFU/ml | 5.8 log CFU/ml | 5.8 log CFU/ml | 5.4 log CFU/ml | 4.2 log CFU/ml | 4.1 log CFU/ml | 3.8 log CFU/ml | 3.4 log CFU/ml | 3.5 log CFU/ml | 3.5 log CFU/ml | 3.5 log CFU/ml | Mold counts at min: 60 ([2]; Penicillium expansum): 3.6 log CFU/ml; Mold counts at min: 0 ([2]; Penicillium pubeseus): 4.4 log CFU/ml; Mold counts at min: 1 ([2]; Penicillium pubeseus): 4.3 log CFU/ml; Mold counts at min: 2 ([2]; Penicillium pubeseus): 4.4 log CFU/ml; Mold counts at min: 5 ([2]; Penicillium pubeseus): 4.4 log CFU/ml; Mold counts at min: 10 ([2]; Penicillium pubeseus): 4.5 log CFU/ml; Mold counts at min: 20 ([2]; Penicillium pubeseus): 4.5 log CFU/ml; Mold counts at min: 30 ([2]; Penicillium pubeseus): 4.4 log CFU/ml; Mold counts at min: 60 ([2]; Penicillium pubeseus): 4.4 log CFU/ml
4 | CC(=O)CCC(=O)O [2.0% levulinic acids] | 6.0 log CFU/ml | – | – | – | – | – | – | – | – | – | – | – | – | – | – | – | – | – | – | – | –
5 | CC(=O)CCC(=O)O [3.0% levulinic acids] | – | – | – | – | – | 6.1 log CFU/ml | 6.2 log CFU/ml | 6.2 log CFU/ml | 6.0 log CFU/ml | 5.8 log CFU/ml | 5.1 log CFU/ml | 4.8 log CFU/ml | 4.1 log CFU/ml | 4.3 log CFU/ml | 4.4 log CFU/ml | 4.2 log CFU/ml | 4.0 log CFU/ml | 3.7 log CFU/ml | 3.3 log CFU/ml | 3.3 log CFU/ml | Mold counts at min: 60 ([2]; Penicillium expansum): 2.4 log CFU/ml
6 | CC(=O)CCC(=O)O [levulinic acid] | – | 4.9 log CFU/ml | 4.6 log CFU/ml | 5.4 log CFU/ml | – | – | – | – | – | – | – | – | – | – | – | – | – | – | – | – | Mold counts at min: 0 ([2]; Penicillium pubeseus): 5.2 log CFU/ml; Mold counts at min: 1 ([2]; Penicillium pubeseus): 4.9 log CFU/ml; Mold counts at min: 2 ([2]; Penicillium pubeseus): 4.8 log CFU/ml; Mold counts at min: 5 ([2]; Penicillium pubeseus): 5.2 log CFU/ml; Mold counts at min: 10 ([2]; Penicillium pubeseus): 4.0 log CFU/ml; Mold counts at min: 20 ([2]; Penicillium pubeseus): 3.2 log CFU/ml; Mold counts at min: 30 ([2]; Penicillium pubeseus): 2.7 log CFU/ml; Mold counts at min: 60 ([2]; Penicillium pubeseus): 1.7 log CFU/ml

Source: patent US20120129928A1, “Chlorine-Free Liquid Microbicide Treatment” (University of Georgia Research Foundation, Inc., priority 2010, published 2012)
